# Apparent affinities of Ab-14 variants for a coronavirus HR2 peptide

The measurements come from Li et al. 2023 (doi:10.1038/s41467-023-39022-2) through the FLAb antibody collection.

Antigen: PDVDLGDISGINAS, a 14-residue peptide of the SARS-CoV-2 spike HR2 region.

The variants keep the light chain, the linker and the frameworks of Ab-14 (scFv order VH, three GGGGS repeats, VL).
VH: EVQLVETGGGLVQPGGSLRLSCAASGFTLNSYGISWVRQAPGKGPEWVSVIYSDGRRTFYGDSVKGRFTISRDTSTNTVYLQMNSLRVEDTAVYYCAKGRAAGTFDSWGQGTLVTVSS
VL: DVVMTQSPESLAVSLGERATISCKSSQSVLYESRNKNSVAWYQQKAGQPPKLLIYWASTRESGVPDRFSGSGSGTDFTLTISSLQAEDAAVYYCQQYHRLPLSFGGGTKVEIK

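Phage display of a naive human antibody library on the peptide gave the parent. Designed CDR sequences, proposed from the first random library and measured here. Several design methods are mixed in this list. Affinity was read by AlphaSeq, a pooled yeast mating assay with surface-displayed partners. Binding brings cells together so that they mate, and sequencing counts the barcode pairs among the diploids. Scores were corrected for input abundance and mapped to Kd with protein pairs of known affinity run in the same pool. Each pool was mated in six replicate cultures.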

Variants are written as CDR1, CDR2 and CDR3 of the heavy chain (limits as in the source). Parent: GFTLNSYGIS, VIYSDGRRTFYGDSVK, GRAAGTFDS.
This list holds designs with more than six substitutions.
The Kd shown is the geometric mean over detected replicates; a lower Kd is a better binder.
An entry "nd" has no value in the source: the pair was not observed among the diploids in any replicate. This suggests poor binding but is not conclusive.

* GFDLNEYGIS / VIYADGKRTAYADSVK / GEAAGTFDQ: 390 pM (6 of 6 replicates)
* GFDLNEYGIS / VIYADGRRTFYIDSVK / GEAGGTFDT: 940 pM (6 of 6 replicates)
* GFDLNEYGIS / VIYADGRRTSYADSVK / GQLAGTFDQ: 240 pM (6 of 6 replicates)
* GFDLNEYGIS / VIYADGMRTFYADDVK / GNNAGTFDI: 870 pM (6 of 6 replicates)
* GFDLNEYGIS / VIYADGQRTAYSDSVK / GENAGTFDI: 440 pM (6 of 6 replicates)
* GFDLDEYGIS / VIYADGMRTAYADTVK / GNVAGTFDV: 1.3 nM (6 of 6 replicates)
* GFDLNEYGIS / VIYADGRRTFYTDSVK / GQLAGTFDL: 350 pM (6 of 6 replicates)
* GFDLNEYGIS / VIYADGKRTFYADSVK / GGNAGTFDV: 130 pM (5 of 6 replicates)
* GFDLDEYGIS / VIYADGMRTVYADSVK / GEVAGTFDV: 360 pM (6 of 6 replicates)
* GFDLDEYGIS / VIYADGRRTAYSDSVK / GQNAGTFDV: 280 pM (6 of 6 replicates)
* GFDLDKYGIS / VIYADGMRKSYADKVK / GRLSGTVYI: 1.1 nM (6 of 6 replicates)
* GFDLNEYGIS / VIYADGKRTAYADSVK / GQVAGTFDQ: 260 pM (6 of 6 replicates)
* GFDLDEYGIS / VIYADGMRTFYTDSVK / GEQAGTFDA: 200 nM (5 of 6 replicates)
* GFDLDEYGIS / VIYADGRRTFYADDVK / GNVAGTFDV: 320 pM (6 of 6 replicates)
* GFDLNEMGIH / VIYADGIRTVVSNDVK / GNVAGTIDV: 200 pM (6 of 6 replicates)
* GNDLQEYGIS / VIYADGMRNQYVQSVK / GMNAGVFVY: nd (0 of 6 replicates)
* GFSLDEYGIS / VIYADGMRAAYQPSVK / GFTGFVVAI: nd (0 of 6 replicates)
* GFDLNEYGIS / VIYADGSRTFYSDSVK / GQTAGTFDM: 740 pM (6 of 6 replicates)
* GFDLDEYGIS / VIYADGMRTAYSDSVK / GQVAGTFDT: 420 pM (6 of 6 replicates)
* GFDLNEYGIS / VIYADGVRSAYADSVK / GNQAGTFDV: 210 pM (6 of 6 replicates)
* GFDLNEYGIS / VIYADGKRTAYADSVK / GEVAGTFDT: 370 pM (6 of 6 replicates)
* GFDLAEYGIS / VIYADGMRNAYATNVK / GYFGGTVMY: nd (0 of 6 replicates)
* GFDLNEYGIS / VIYADGQRTAYADSVK / GNQAGTFDT: 390 pM (6 of 6 replicates)
* GFDLAEYGIS / VIYADGSRTAYNQNVK / GLGGDSFDF: nd (0 of 6 replicates)
* GFDLLEYGIS / VIYADGQRVAYKNNVK / GKNGAFFSN: 740 pM (6 of 6 replicates)
* GFALDEYGIS / VIYADGTRSAYLETVK / GHTGADFIV: nd (0 of 6 replicates)
* GFDLDEYGIS / VIYADGRRTFYADSVK / GEAAGTFDL: 13 nM (6 of 6 replicates)
* GFDLDEYGIS / VIYADGSRTAYSDSVK / GQNAGTFDV: 710 pM (6 of 6 replicates)
* GFDVDEYGIS / VIYADGKRSMYANSVK / GTIGGMFFQ: 3.9 nM (5 of 6 replicates)
* GFDINEYGIS / VIYADGMRRAYSQSVK / GHGEDLYLD: nd (0 of 6 replicates)
* GFQLDEYGIS / VIYADGLRTVYDDAVK / GSDTGLFMI: nd (0 of 6 replicates)
* GFDLNEYGIS / VIYADGKRTAYAESVK / GNVAGTFDV: 390 pM (6 of 6 replicates)
* GFDLNEYGIS / VIYADGMRKAYADSVK / GNNAGTFDL: 4.5 nM (5 of 6 replicates)
* GEDLDSYGIS / VIYADGLRTAYSDNFK / GNLGGQFDM: 770 nM (1 of 6 replicates)
* GFDLEDYGIS / VIYADGQRTFYADSVK / GEIAGTFDL: 3.6 nM (2 of 6 replicates)
* GEDLDEYGIS / VIYADGQRTAYDESVK / GKIAGSFFH: nd (0 of 6 replicates)
* GFDLNEYGIS / VIYADGSRTAYSDSVK / GENAGTFDI: 2.6 nM (6 of 6 replicates)
* GFNLDEYGIS / VIYADGQRTFYADSVK / GQVAGTFDV: 210 pM (6 of 6 replicates)
* GFDLNEYGIS / VIYADGVRTFYSDSVK / GAVAGTFDN: 560 pM (6 of 6 replicates)
* GFDLEDYGIS / VIYADGRRTFYADSVK / GNVAGTFDK: 3.4 nM (6 of 6 replicates)
* GFDLNEYGVS / VIYADGIRSAYADSFK / GNVGVAFFQ: nd (0 of 6 replicates)
* GFDLNEYGIS / VIYADGHRTKYQNSVK / GGQADFALL: nd (0 of 6 replicates)
* GFDLNEYGIS / VIYADGVRTAYADSVK / GNVAGTFDT: 280 pM (6 of 6 replicates)

The closing 7 entries, repeated:

* GFDLNEYGIS / VIYADGSRTAYSDSVK / GENAGTFDI = 2.6 nM (6 of 6 replicates)
* GFNLDEYGIS / VIYADGQRTFYADSVK / GQVAGTFDV = 210 pM (6 of 6 replicates)
* GFDLNEYGIS / VIYADGVRTFYSDSVK / GAVAGTFDN = 560 pM (6 of 6 replicates)
* GFDLEDYGIS / VIYADGRRTFYADSVK / GNVAGTFDK = 3.4 nM (6 of 6 replicates)
* GFDLNEYGVS / VIYADGIRSAYADSFK / GNVGVAFFQ = nd (0 of 6 replicates)
* GFDLNEYGIS / VIYADGHRTKYQNSVK / GGQADFALL = nd (0 of 6 replicates)
* GFDLNEYGIS / VIYADGVRTAYADSVK / GNVAGTFDT = 280 pM (6 of 6 replicates)

Background: pairings of all heavy chain designs with three empty control strains gave a value in 1% of cases (median 120 nM, 5th percentile 7.0 nM). Values in that range, when seen in few replicates, are hard to tell from nonspecific mating.
The parent sequence was in this pool as ten entries: three were never detected, three once, and four in most replicates, with averages from 2.2 nM to 240 nM.
In the paper, a design with two or fewer of six values counts as a poor binder.
The range of this assay differs from that of the first round, and the authors advise against merging the two.